Here are results for four compounds from ChEMBL document CHEMBL2311363, “Cyanide antidotes for mass casualties: water-soluble salts of the dithiane (sulfanegen) from 3-mercaptopyruvate for intramuscular administration” (2013).

Converted amounts (≈) assume the structure as drawn.

Data set [1] in a line: Aqueous solubility of the compound at 20 degC by shake flask method. To be noted: buffer.
Data set [2] relates to Mus musculus. The data set can be described thus: Antidotal efficacy in ND-4 Swiss-Webster mouse sublethal cyanide model assessed as reduction in recovery time at 0.73 mol/kg, im administered 5 mins post cyanide challenge (reference value: 68.3 +/- 3.2 mins ).
The test system of data set [3] is Mus musculus. The data set can be described thus: Antidotal efficacy in ND-4 Swiss-Webster mouse sublethal cyanide model assessed as reduction in recovery time at 0.73 mol/kg, im administered 10 mins post cyanide challenge (reference value: 68.6 +/- 1.3 mins ).
The nature of data set [4]: Half life in phosphate buffer at pH 7.4.
For data set [5], the system named is Mus musculus. The data set can be described thus: Antidotal efficacy in ND-4 Swiss-Webster mouse sublethal cyanide model assessed as reduction in recovery time at 0.73 mol/kg, im administered 40 mins post cyanide challenge (reference value: 69.0 +/- 2.1 mins ).
Data set [6] concerns Mus musculus. Briefly: Antidotal efficacy in ND-4 Swiss-Webster mouse sublethal cyanide model assessed as reduction in recovery time at 0.73 mol/kg, im administered 30 mins post cyanide challenge (reference value: 68.0 +/- 2.0 mins ).
Data set [7] can be described thus: Stability in D2O/deuterated phosphate buffer at pH 1.4 over 22 hrs. To be noted: pH 1.4, 22 h.

As to `N[C@H]1C(O)O[C@H](CO)[C@@H](O)[C@@H]1O.N[C@H]1C(O)O[C@H](CO)[C@@H](O)[C@@H]1O.O=C(O)C1(O)CSC(O)(C(=O)O)CS1` (stereo not given), the solubility in data set [1] was 490 mM.
The same measure, in the same setting: the value for `O=C(O)C1(O)CSC(O)(C(=O)O)CS1` (stereo not given) was 190 mM (≈ 45.6 mg/mL).
Take `O=C([O-])C1(O)CSC(O)(C(=O)[O-])CS1.[Na+].[Na+]` (stereo not given): the Time was found to be 19.7 min in data set [2], 31 min in data set [3], 58.7 min in data set [5] and 49 min in data set [6]. Besides, the t1/2 in data set [4] is 2 h. Moreover, the Stability result in data set [7] was “Stable”. The compound further came in with a solubility in data set [1] of 350 mM.
Turning to `NC(CO)(CO)CO.NC(CO)(CO)CO.O=C(O)C1(O)CSC(O)(C(=O)O)CS1` (stereo not given), in data set [1], the solubility worked out at 480 mM.

What is called solubility is the dissolved amount per volume that the medium holds. Read a high solubility as a readily soluble substance.
